From patent publication US20240209053A1 (Protagonist Therapeutics, Inc., priority 2021, published 2024)

Legend:
ferroportin = target: T1, ferroportin (Homo sapiens, UniProt Q9NP59); experiment: T47D cell-based ferroportin internalization assay in presence of 0.5% mouse serum albumin (MSA); details: Table 6B, T47D cells
T1 sequence (Q9NP59 1-571): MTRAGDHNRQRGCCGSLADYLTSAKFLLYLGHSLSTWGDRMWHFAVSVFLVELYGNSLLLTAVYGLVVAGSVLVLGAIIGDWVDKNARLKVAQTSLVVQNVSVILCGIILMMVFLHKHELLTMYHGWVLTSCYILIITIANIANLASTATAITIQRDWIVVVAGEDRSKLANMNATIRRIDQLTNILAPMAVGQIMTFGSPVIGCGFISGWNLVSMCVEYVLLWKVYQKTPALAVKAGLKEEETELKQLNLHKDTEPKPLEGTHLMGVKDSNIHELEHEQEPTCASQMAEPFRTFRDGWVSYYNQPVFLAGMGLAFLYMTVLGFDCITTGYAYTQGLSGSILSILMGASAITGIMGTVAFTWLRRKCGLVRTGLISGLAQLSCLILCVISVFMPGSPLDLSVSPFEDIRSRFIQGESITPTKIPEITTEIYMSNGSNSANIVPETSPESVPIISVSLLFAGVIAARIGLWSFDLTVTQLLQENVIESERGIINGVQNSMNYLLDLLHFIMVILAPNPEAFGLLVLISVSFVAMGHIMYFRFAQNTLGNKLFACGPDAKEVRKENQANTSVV
Procedure: The potency of the peptides in causing ferroportin internalization was evaluated in a T47D cell-based assay. […] In this internalization assay, the potency of the test peptides was evaluated in presence of serum albumin which is the main protein component in the blood. T47D cells were maintained in RPMI media (containing required amount of fetal bovine serum) and regularly sub-cultured. In preparation for the assay, the cells were seeded in 96-well plates at a density of 80-100 k cells per well in 100 ul volume and allowed to rest overnight. On the next day, test peptides were first prepared in dilution series (10-point series, starting concentration of ˜5 μM, typically 3-4×fold dilution steps), all with 0.5% mouse serum albumin (MSA purified from mouse serum; Sigma, A3139). The test peptide dilution series were allowed to incubate at room temperature for 30 min. Then the media was aspirated from the 96-well cell plate and test peptide dilution series were added. After 1 hr incubation, the media with test peptides was aspirated out and AF647-conjugated detection peptide was added at fixed concentration of 200 nM. The AF647-conjugated detection peptide was previously verified to bind to ferroportin and cause its internalization. The cells were washed again after a 2 hr incubation in preparation for flow cytometry analysis. The Median Fluorescence Intensity (MFI) of the AF647-positive population was measured (after removing dead cells and non-singlets from the analysis). The MFI values were used to generate a dose-response curve and obtain IC50 potencies for the test peptides. The IC50 potencies were calculated by using 4-parameter non-linear fitting function in Graphpad Prism (Table 6A).

[1] = target: T2, human ferroportin (SLC40A1) (Homo sapiens, UniProt Q9NP59); experiment: FPN activity assay: internalization/degradation of ferroportin-GFP in stably transfected HEK293 cells (decrease in GFP fluorescence); format: cell-based; details: Table 6B, Formula (X) peptides
T2 sequence (Q9NP59 1-571): T1 sequence (Q9NP59 1-571)
Procedure: Peptide analogues were tested in vitro for induction of internalization of the human ferroportin protein. Following internalization, the ferroporin protein is degraded. The assay used (FPN activity assay) measures a decrease in fluorescence of the receptor. The cDNA encoding the human ferroportin (SLC40A1) was cloned from a cDNA clone from Origene (NM_014585). The DNA encoding the ferroportin was amplified by PCR using primers also encoding terminal restriction sites for subcloning, but without the termination codon. The ferroportin receptor was subcloned into a mammalian GFP expression vector containing a neomycin (G418) resistance marker in such that the reading frame of the ferroportin was fused in frame with the GFP protein. The fidelity of the DNA encoding the protein was confirmed by DNA sequencing. HEK293 cells were used for transfection of the ferroportin-GFP receptor expression plasmid. The cells were grown according to standard protocol in growth medium and transfected with the plasmids using Lipofectamine (manufacturer's protocol, Invitrogen). The cells stably expressing ferroportin-GFP were selected using G418 in the growth medium (in that only cells that have taken up and incorporated the cDNA expression plasmid survive) and sorted several times on a Cytomation MoFloTM cell sorter to obtain the GFP-positive cells (488 nm/530 nm). The cells were propagated and frozen in aliquots. […] Compound was added to desired final concentration for at least 18 hours in the incubator. Following incubation, the remaining GFP-fluorescence was determined either by whole cell GFP fluorescence (Envision plate reader, 485/535 filter pair), or by Beckman Coulter QuantaTM cytometer (express as Geometric mean of fluorescence intensity at 485 nm/525 nm). Compound was added to desired final concentration for at least 18 hours but no more than 24 hours in the incubator. […] The “RI” in RI-Mini-Hepcidin refers to Retro Inverse. A retro inverse peptide is a peptide with a reversed sequence in all D amino acids. An example is that […] becomes […]. The EC50 of these reference compounds for ferroportin internalization/degradation was determined according to the FPN activity assay described above. These peptides served as control standards.

SMILES	IC50 (ferroportin) [nM]	IC50 [1] [nM]
CC[C@H](C)[C@@H]1NC(=O)[C@H](CCCCNC(=O)COCCOCCNC(=O)COCCOCCNC(=O)[C@H](CN)NC(=O)CCCCCCCCCCCCCCCCC(=O)O)NC(=O)[C@@H]2CCCN2C(=O)[C@H](C(c2ccccc2)c2ccccc2)NC(=O)[C@H](Cc2c[nH]cn2)NC(=O)[C@H]([C@@H](C)O)NC(=O)[C@@H](NC(=O)CC(C)C)CCC/C=C/CCC[C@@H](C(=O)N[C@H](CC(=O)N[C@H](CCCCN)C(N)=O)Cc2ccccc2)NC1=O [compound 121]	10 to 100	10 to 100
CC(C)CC(=O)N[C@H]1CCC/C=C/CCC[C@@H](C(=O)N[C@H](CC(=O)N[C@@H](CCCCNC(=O)COCCOCCNC(=O)COCCOCCNC(=O)C[N+](C)(C)CCNC(=O)CCCCCCCCCCCCCCCCC(=O)O)C(=O)N[C@H](CCCNC(=N)N)C(N)=O)Cc2ccccc2)NC(=O)[C@H](CC(C)(C)C)NC(=O)[C@H](C)NC(=O)[C@@H]2CCCN2C(=O)[C@H](C(c2ccccc2)c2ccccc2)NC(=O)[C@H](Cc2c[nH]cn2)NC(=O)[C@H]([C@@H](C)O)NC1=O [compound 101]	10 to 100	1 to 10
CCCCCCCCCCCCCCCC(=O)NCCCCCC(=O)NCCCC[C@H](NC(=O)C[C@H](Cc1ccccc1)NC(=O)[C@@H]1CCC/C=C/CCC[C@H](NC(=O)CC(C)C)C(=O)N[C@@H]([C@@H](C)O)C(=O)N[C@@H](Cc2c[nH]cn2)C(=O)N[C@@H](C(c2ccccc2)c2ccccc2)C(=O)N2CCC[C@H]2C(=O)N[C@@H](C)C(=O)N[C@@H]([C@@H](C)CC)C(=O)N1)C(=O)N[C@H](CCCNC(=N)N)C(N)=O [compound 114]	1 to 10	1 to 10
